UUG fidelity – alters start codon recognition fidelity in yeast | S. cerevisiae UUG-firefly luciferase reporter, luminescence/redox ratio | activity score, % at 18.7 µM | 350,000 compounds, 0.13% hits | AID 602363;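 active = replicate mean at a twofold rise or more, about +100% in these data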;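 note: firefly luciferase made from a UUG start codon reports start codon fidelity; reporter light over untreated wells divided by growth signal over untreated wells; some hits fall short of that in this replicate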
PDI turbidity – inhibitors of human PDI, primary screen, biochemical, turbidity, single point, plate reader. PDI insulin aggregation turbidity, A650, 90 min. inhibition, % at 10 µM. actives 0.052% (n = 350,000);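 active = mean inhibition across replicates of 30% or more, whatever share of single replicates reach that level; inconclusive = mean inhibition below 30% while every single replicate reaches 30%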
PglD inh – C. jejuni PglD acetyltransferase inhibitors, primary screen, biochemical, DTNB colorimetric, single point; purified PglD enzyme, DTNB colorimetric CoA detection; UDP-N-acetylbacillosamine N-acetyltransferase PglD (Campylobacter jejuni); AID 602405, 2012; inhibition, % at 12.5 µM; actives 0.098% (n = 360,000); in the data active = inhibition above about 16%, passing the limit was not always enough; inconclusive = no clear call, values can overlap the other calls
FGF22 binding – binders of human FGF22 protein, primary screen, FGF22 synaptogenesis inhibitor project, biophysical, thermal shift, single point; recombinant FGF22 thermal shift, SYPRO orange fluorescence; percent of sucrose octasulfate shift, DMSO zero; activity (Tm shift, normalised), % at 9.99 µM; actives 1.5% (n = 340,000);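 active = mean Tm shift, scaled 0 neutral to 100 positive control, at about 1.3% or above, every replicate too, limit read from the data; inconclusive = no clear call, values can overlap the other calls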
ARNT TACC3 PPI – disruptors of ARNT/TACC3 protein interaction, primary screen, biochemical, AlphaScreen, single concentration. inhibition, % at 9.99 µM. AlphaScreen His-ARNT PAS-B/GST-TACC3 binding, luminescence; TACC3 fragment carries E629A point mutation. actives 0.66% (n = 390,000). Transforming acidic coiled-coil-containing protein 3 (Homo sapiens), Q9Y6A5;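 active = mean inhibition of replicates at least 50% and at least half of replicates each reaching 50%; inconclusive = half or more replicates reach 50% but mean below 50%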;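 also: 0% = complete ARNT plus TACC3 wells and 100% = ARNT alone without TACC3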
ERp5 block – inhibitors of ERp5-driven insulin aggregation, primary screen, biochemical, turbidity, absorbance 650 nm, single point. 90 min. inhibition, % at 9.99 µM. actives 0.05% (n = 350,000). AID 651711, 2012;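 active = mean replicate inhibition above about 25%, with every replicate also reaching it, limit read from the data, passing the limit was not always enough; inconclusive = only one of those two criteria met; inactive = neither criterion met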
* = called active by the depositor; ? = inconclusive; · = no result given; ! = not active in a repeat. The list is not random: actives were taken first. Their share in the collection is about 1.9%.

SMILES	UUG fidelity	PDI turbidity	PglD inh	FGF22 binding	ARNT TACC3 PPI	ERp5 block
COc1ccc(NC(=O)N(C)C[C@H]2Oc3ccc(NS(=O)(=O)c4c(C)noc4C)cc3CC(=O)N([C@@H](C)CO)C[C@H]2C)cc1	2	·	10	0	·	-10
CC1CC(C)(C)NC(=S)N1CC(=O)NCc1ccc2c(c1)OCO2 (centres undefined)	·	0	·	43*	2	-7
Cc1noc(C)c1NC(=O)N(C)C[C@@H]1Oc2ccc(NC(=O)c3ccncc3)cc2C(=O)N([C@@H](C)CO)C[C@@H]1C	-20	·	0	0	0	-5
Cc1noc(C)c1NC(=O)Nc1ccc2c(c1)C(=O)N([C@H](C)CO)C[C@@H](C)[C@@H](CN(C)C(=O)Nc1ccc(F)cc1)O2	0	·	-1	0	-2	51*
Cc1noc(C)c1NC(=O)N(C)C[C@H]1Oc2ccc(NC(=O)c3ccncc3)cc2C(=O)N([C@H](C)CO)C[C@@H]1C	-14	12	1	0	-2	28*!
CC(C)NC(=O)Nc1ccc2c(c1)C(=O)N([C@H](C)CO)C[C@H](C)[C@@H](CN(C)S(=O)(=O)c1ccccc1)OCCCC[C@H](C)O2	-2	·	-1	1	2	-3
C[C@@H]1CN([C@H](C)CO)S(=O)(=O)c2ccc(-c3ccc(C(=O)N(C)C)cc3)cc2O[C@@H]1CN(C)C(=O)C1CCCCC1	8	·	3	0	2	-6
C=C[C@@H](OC)[C@H](OC(=O)Nc1ccc(SC)cc1)c1ccc(OCCO)cc1	-1	·	1	0	1	-1
COc1ccc(C(CC(=O)O)n2cnnn2)cc1 (centres undefined)	·	-2	·	42	3	0
CC(C)Oc1ccc(C(CC(=O)O)n2cnnn2)cc1 (centres undefined)	-21	-4	-3	43*	2	-5
Cc1ccc(S(=O)(=O)Nc2cccc3c2O[C@@H](CN(C)Cc2ccc(C(=O)Nc4ccccc4N)cc2)[C@H](C)CN([C@@H](C)CO)C3=O)cc1	·	·	·	0	·	·
Cc1noc(C)c1NC(=O)N(C)C[C@H]1Oc2c(NS(=O)(=O)c3ccc(Cl)cc3)cccc2C(=O)N([C@@H](C)CO)C[C@@H]1C	-6	·	0	0	-1	25*
Cc1noc(C)c1NC(=O)N(C)C[C@@H]1Oc2c(NS(=O)(=O)c3ccc(Cl)cc3)cccc2C(=O)N([C@@H](C)CO)C[C@H]1C	-5	·	1	0	-3	13
Cc1ccc(S(=O)(=O)Nc2cccc3c2O[C@H](CN(C)Cc2ccc(C(=O)Nc4ccccc4N)cc2)[C@@H](C)CN([C@@H](C)CO)C3=O)cc1	·	·	·	1.4*	·	-1
Cc1noc(C)c1NC(=O)Nc1cccc2c1O[C@H](CN(C)C(=O)Nc1cccc3ccccc13)[C@@H](C)CN([C@H](C)CO)C2=O	18	·	16*	-1	11	-3
C[C@H]1CN([C@@H](C)CO)C(=O)c2cccc(NS(=O)(=O)c3ccccc3)c2O[C@@H]1CN(C)S(=O)(=O)c1ccc(F)cc1	-2	·	1	0	1	·
C[C@@H]1CN([C@@H](C)CO)C(=O)c2cccc(NS(=O)(=O)c3ccc(F)cc3)c2O[C@H]1CN(C)S(=O)(=O)c1ccccc1	1	·	-2	0	1	46*
Cc1noc(C)c1NC(=O)Nc1cccc2c1O[C@H](CN(C)C(=O)Nc1cccc3ccccc13)[C@@H](C)CN([C@@H](C)CO)C2=O	12	·	0	0	9	0
O=C(C[C@H]1CC[C@@H]2[C@H](COC[C@H](O)CN2C(=O)c2cccnc2)O1)NC1Cc2ccccc2C1	·	·	0	0	-2	-3
C[C@H](CO)N1C[C@H](C)[C@H](CN(C)S(=O)(=O)c2ccc(F)cc2)Oc2ccc(N(C)C)cc2C1=O	6	·	-3	-1	10	-5
Cc1ccc(S(=O)(=O)N(C)C[C@H]2Oc3c(NC(=O)Nc4c(C)noc4C)cccc3C(=O)N([C@@H](C)CO)C[C@@H]2C)cc1	-1	·	0	0	-13	-6
Cc1noc(C)c1NC(=O)Nc1cccc2c1O[C@H](CN(C)S(=O)(=O)c1ccc(Cl)cc1)[C@@H](C)CN([C@H](C)CO)C2=O	5	·	4	0	4	26*
Cc1ccc(S(=O)(=O)N(C)C[C@@H]2Oc3c(NC(=O)NC4CCCCC4)cccc3C(=O)N([C@H](C)CO)C[C@@H]2C)cc1	25	·	0	0	active	0
C/C=C/c1ccc([C@@H]2[C@H](CO)N(C(C)=O)C23CN(C(=O)c2cnccn2)C3)cc1	·	·	·	0	·	-3
Cc1ccc(C)c(NC(=S)N(CCN(C)C)C(C)c2ccccn2)c1 (centres undefined)	7	3	8	1	39	-6
Cc1cccc(C)c1NC(=S)N(CCN(C)C)C(C)c1ccccn1 (centres undefined)	·	8	·	0	45*	?
O=C(c1ccc(NS(=O)(=O)c2cccc3cccnc23)cc1)N1CCCCC1	·	-4	·	44*	-2	-1
O=C(c1ccc(NS(=O)(=O)c2ccc(F)cc2)cc1)N1CCCCC1	·	-5	·	0	0	16
O=C(c1ccc(S(=O)(=O)Nc2ccc(F)cc2)cc1)N1CCN(c2ccccn2)CC1	·	-4	·	43*	1	5
O=C(/C=C/c1ccccc1Cl)Nc1ccc(Cl)cn1	·	-5	·	43*	·	4

Whole records, looked up by structure. Order of screens: UUG fidelity, PDI turbidity, PglD inh, FGF22 binding, ARNT TACC3 PPI, ERp5 block
Cc1ccc(S(=O)(=O)N(C)C[C@@H]2Oc3c(NC(=O)NC4CCCCC4)cccc3C(=O)N([C@H](C)CO)C[C@@H]2C)cc1 across the screens: 25, ·, 0, 0, active, 0
O=C(c1ccc(NS(=O)(=O)c2cccc3cccnc23)cc1)N1CCCCC1 across the screens: ·, -4, ·, 44*, -2, -1
C/C=C/c1ccc([C@@H]2[C@H](CO)N(C(C)=O)C23CN(C(=O)c2cnccn2)C3)cc1 across the screens: ·, ·, ·, 0, ·, -3
O=C(/C=C/c1ccccc1Cl)Nc1ccc(Cl)cn1 across the screens: ·, -5, ·, 43*, ·, 4
O=C(c1ccc(S(=O)(=O)Nc2ccc(F)cc2)cc1)N1CCN(c2ccccn2)CC1 across the screens: ·, -4, ·, 43*, 1, 5

Additional results follow:
SMILES	UUG fidelity	PDI turbidity	PglD inh	FGF22 binding	ARNT TACC3 PPI	ERp5 block
O=C(/C=C/c1ccccc1Cl)Nc1ccccc1	-55	9	5	1.5*	-1	4
O=C(Nc1ccc(Cl)cn1)C1C(c2ccccc2)C1(Cl)Cl (centres undefined)	-4	-1	1	44*	-1	-5
O=C(/C=C/c1ccccc1Cl)Nc1cccc(O)c1	·	4	·	1	2	0
C#CCNc1cc(-c2ccccc2)nc2ncnn12	·	-1	·	44*	-7	-3
c1ccc(Nc2cc(-c3ccccc3)nc3ncnn23)cc1	·	-6	·	0	-8	-4
C[C@@H]1CN([C@H](C)CO)C(=O)Cc2cc(NC(=O)Cn3cnnn3)ccc2O[C@H]1CN(C)Cc1ccc(C(=O)Nc2ccccc2N)cc1	12	·	3	0	6	-3

Screening data as filed in PubChem.
